Compound activity deposited in PubChem by National Center for Advancing Translational Sciences (NCATS).
Rango-impB inh: inhibitors of Rango-importin beta complex formation; Rango CFP/YFP FRET sensor + importin beta, 45 min; Q14974; Potency, µM (highest dose often 92.2 µM); 340,000 compounds, 0.031% hits; AID 540263; calls by dose curve; note: nearly all actives have a fitted effect of over 15% in size
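FRET biosensor (snurportin 1 IBB flanked by EYFP and cerulean), 50 nM, with compound 5 min, then 0.125 microM importin beta in PBS, 1 mM DTT, 0.02% Tween-20, 0.1% BSA. CFP/YFP ratio read after 45 min at room temperature; pre-read flags interference.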
Rango release inh: prevents RanGTP from dissociating the Rango-importin beta complex; O95149+P62826; 340,000 compounds, 0.071% hits; AID 540253; Biochemical FRET Rango-importin beta, RanGTP-induced dissociation; Potency, µM (highest dose often 46.1 µM); calls by dose curve; note: nearly all actives have a fitted effect of over 45% in size
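Compounds preincubate 5 min with complex of recombinant Rango and importin beta in PBS with 1 mM DTT. Ran (0.6 uM) loaded with 2 mM GTP plus 0.2 uM RCC1 starts dissociation; FRET is recorded 45 min later.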
EPAC1 antagonist: EPAC1 (human) antagonism; EPAC1 GEF assay, Rap1b-BODIPY-GDP exchange fluorescence; AID 720709; 360,000 compounds, 0.14% hits; O95398; Potency, µM (doses to about 115 µM), usual class: inhibitors; note: nearly all actives have a fitted effect of over 50% in size
EPAC2 antag: blocks human EPAC2 exchange factor; EPAC2 GEF exchange of Rap1B-BODIPY-GDP, fluorescence; Potency, µM (titrated, usually from 114 µM), most hits filed as inhibitors; 360,000 compounds, 0.18% hits; Q8WZA2; note: nearly all actives have a fitted effect of over 45% in size
EPAC2 agonist: activates human EPAC2 exchange factor; 360,000 compounds, 0.079% hits; AID 720711; EPAC2 activation, biochemical qHTS; response scale: 100% = 6.5 mM cAMP response; Potency, µM (titrated, usually from 154 µM), actives largely listed as activators; Q8WZA2; note: nearly all actives have a fitted effect of over 50% in size
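Compounds were added across a concentration range to EPAC2 (100 nM), RAP1B-BODIPY-GDP (250 nM) and GDP (50 uM). After 5 min at room temperature, fluorescence was recorded at 5-min intervals for 30 min.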
EPAC1 ag: activates human EPAC1 exchange factor. O95398. EPAC1 agonist qHTS, biochemical assay; response scale: 100% = response to 6.5 mM cAMP. Potency, µM (series often up to 154 µM), hits mostly activators. 360,000 compounds, 0.073% hits; note: nearly all actives have a fitted effect of over 60% in size
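Read-out is the fluorescence drop as BODIPY-GDP leaves Rap1B (480 nm excitation, 540 nm emission), recorded every 5 minutes over 30 minutes. Reactions held 100 nM EPAC1, 250 nM Rap1B–BODIPY-GDP and 50 uM GDP, with 6.5 mM cAMP setting full activation.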
A number is an active result; – = inactive; ? = inconclusive; · = no result given; [ ] = dose if it differs, or a comment. This is a sample that favours compounds with a hit; in the whole collection about 0.43% have one here. Unless noted, calls come from the whole dose curve; as a rule, active = well fitted curve in the direction sought with a large enough effect; inconclusive = small, poorly fitted or top-dose-only effect, or another doubt; inactive = no such curve, though single readings can be large; an effect the other way counts as inactive or inconclusive.

SMILES	Rango-impB inh	Rango release inh	EPAC1 antagonist	EPAC2 antag	EPAC2 agonist	EPAC1 ag
CCN(CC)C(=O)Cn1cc(C(=O)C(=O)N2CCN(C)CC2)c2ccccc21	–	–	–	–	–	–
CCN(CC)C(=O)Cn1cc(C(=O)C(=O)N2CC=C(c3ccccc3)CC2)c2ccccc21	36.6µM	–	–	–	–	–
O=C(NCc1ccncc1)[C@@H]1CCCN1C(=O)[C@H]1CCCN1	·	·	–	–	–	–
Cc1cccc(C)c1NC(=O)C(c1ccnc2ccccc12)N1CCN(C)CC1 (stereo not given)	·	·	–	–	–	–
CC(C)CCn1c(Oc2ccccc2Cl)nc2c1c(=O)n(C)c(=O)n2C	–	–	–	31.6µM	–	–
Cn1c(=O)c2c(nc(Oc3ccccc3Cl)n2C)n(C)c1=O	–	–	–	–	–	–
O=C(NCC[C@@H]1CC[C@@H](NS(=O)(=O)c2ccccc2)[C@@H](CO)O1)c1cc(Cl)cc(Cl)c1	·	·	–	–	–	–
C=CCn1c(=O)/c(=C/c2ccc(C)o2)s/c1=C(/C#N)C(=O)c1ccccc1	?	?	–	–	100µM	–
Cc1ccc(/C=c2\sc3nc(-c4ccccc4Br)nn3c2=O)o1	–	–	–	–	–	–
CC(=O)Oc1c(Sc2ccccc2[N+](=O)[O-])c(C)nn1C(C)(C)C	–	–	?	50.1µM	–	–
Cc1ccc(-n2nc(C)c(Sc3ccccc3[N+](=O)[O-])c2N)cc1	–	–	–	–	–	–
O=C1c2cccnc2-c2ncccc21	–	–	–	–	–	–
COC1=C(Br)C(=O)c2ncccc2C1=O	–	–	?	8.91µM	–	–
Cc1ccc(-c2ccc(CN3C(CC(C)C)C(=O)N(Cc4cn(CCC5OCCCO5)nn4)CCS3(=O)=O)cc2)cc1 (stereo not given)	·	·	–	?	–	–
CC(C)CC1C(=O)N(Cc2cn(CCC3OCCCO3)nn2)CCS(=O)(=O)N1Cc1ccc(-c2ccc(F)cc2)cc1 (stereo not given)	·	·	–	22.4µM	–	–
CCN1CCc2c(sc(NC(=O)c3ccc(S(=O)(=O)N(C)c4ccccc4)cc3)c2C(=O)NC)C1	?	?	–	–	100µM	–
CCOc1ccccc1NC(=O)C1CCN(c2nc(-c3ccc(OC)cc3)no2)CC1	–	–	–	–	–	112µM
COc1ccc(NC(=O)CCCc2ccccc2)c(OC)c1	–	16.4µM	–	–	–	–
CCC(=O)NC(c1cccs1)c1cc(Cl)c2ccccc2c1O (stereo not given)	–	–	–	79.4µM	–	–
COCCNc1nc(Nc2ccccc2Cl)c2sccc2n1	·	·	–	?	–	–
CCCCC(c1nc2ccccc2[nH]1)n1c(-c2ccccc2)nc2ccccc21 (stereo not given)	·	·	–	–	–	–
O=c1c2ccccc2[nH]c(=S)n1CCCN1CCOCC1	–	–	–	–	–	–
N=C1c2c(cc(=O)n3c2[nH]c2ccccc23)CN1CCN1CCOCC1	?	20.6µM[inhibitor]	–	–	–	–
COC(=O)[C@@]12C[C@@H](CC(=O)NCC3CCCCC3)C(=O)N(CCc3ccc(OC)c(OC)c3)C1=CCC(C)(C)C2	·	·	–	–	–	–
COc1cc2c(O)c3c(c(-c4ccc5c(c4)OCO5)c2cc1OC)C(=O)OC3	?	?	–	–	–	–
SMILES	Rango-impB inh	Rango release inh	EPAC1 antagonist	EPAC2 antag	EPAC2 agonist	EPAC1 ag
COc1cc2c(OC(C)=O)c3c(c(-c4ccc5c(c4)OCO5)c2cc1OC)C(=O)OC3	?	16.4µM	–	–	–	–
O=C(N/N=C/c1ccc(-c2ccc(Cl)c(C(=O)O)c2)o1)c1cc2c(ccc3ccccc32)o1	?	?	39.8µM	–	–	–
CCCCc1c(-c2ccccc2F)ncn1CCc1ccccc1OC	·	·	–	42.3µM	–	–
C=Cc1ccc(N=Cc2c(O)ccc3ccccc23)cc1	?	–	–	–	–	–
Oc1ccc2ccccc2c1C=Nc1ccc(N2CCOCC2)cc1	36.6µM	?	–	–	–	?
Oc1ccc2ccccc2c1C=NC12CN3CCN(CN(C3)C1)C2	?	–	79.4µM	?	–	–
COc1ccc(N2C(=O)c3ccccc3NC(=O)C2C(=O)NCCc2ccccc2F)cc1 (stereo not given)	·	·	–	–	–	–
CC(CC(=O)Nc1ccc2c(c1)c(=O)n(C)n2-c1ccc2ccccc2c1)C(F)(F)F (stereo not given)	·	·	–	–	–	–
COc1ccccc1-c1cc(NC=O)c2ncc(-c3cccc(C(F)(F)F)c3)n2c1	·	·	–	–	–	–
CN(C)c1ccccc1-c1cc(NC=O)c2ncc(-c3cccc(C(F)(F)F)c3)n2c1	·	·	31.6µM	?	–	–
Cc1nc2ccccc2n2c(O)c(CC(=O)O)cc12	?	?	–	–	112µM	?
Cc1nc2ccccc2n1CCC(=O)O	–	–	–	–	–	–
C#Cc1ccc([C@H]2C=C(C(=O)NCc3ccccc3)O[C@@H](OCC)[C@@H]2CCCO)cc1	–	–	–	25.1µM	–	–
C#Cc1ccc([C@@H]2C=C(C(=O)Nc3ccccc3)O[C@H](OCC)[C@H]2CCCO)cc1	–	–	–	?	–	–
Cc1cc(C)c2nc(N3C(=O)C(O)=C(C(=O)c4ccco4)C3c3ccco3)sc2c1 (stereo not given)	?	?	50.1µM	–	–	–
O=Cc1c[nH]c2cccc(OCc3ccccc3)c12	58µM	–	–	–	–	–
CSc1ccc(C(O)c2ncc(-c3cccc(F)c3)[nH]2)cc1 (stereo not given)	·	·	–	–	–	–
O=C(O)c1[nH]c2ccccc2c1C(c1ccccc1)c1c(C(=O)O)[nH]c2ccccc12	–	–	–	–	–	–
O=C(O)c1[nH]c2ccccc2c1C(c1cc(Cl)cc([N+](=O)[O-])c1O)c1c(C(=O)O)[nH]c2ccccc12	?	–	25.1µM	–	–	–
Cc1ccc(C(=O)N2CCN(c3ccccc3)CC2)cc1S(=O)(=O)N1CCOCC1	–	–	56.2µM	–	–	–
CC(=O)N1CCCC(C)(C(=O)Nc2ccc3oc(C)nc3c2)C1 (stereo not given)	·	·	–	–	–	–
Cc1ccc2nc(C(C)(C)C)c(Cc3cccc(Cl)c3)n2c1	·	·	–	–	–	–
CN1C(=CC=C2C=C(I)C(=O)C(I)=C2)C(C)(C)c2ccccc21	–	–	–	–	–	–
CN1/C(=C\C=C2/C(=O)Oc3ccccc3C2=O)C(C)(C)c2ccccc21	?	?	–	–	79.4µM	79.4µM
CN1/C(=C\C=C2/SC(=S)NC2=O)C(C)(C)c2ccccc21	23.1µM	?	–	–	63.1µM	63.1µM
